{"source": "patent US20060024786", "key": {"[1]": {"tested_on": "full length human N-WASP (Myc-N-WASP-TAP)"}, "[2]": {"tested_on": "full length human WASP (Myc-WASP-TAP)"}}, "data": [{"substance": "N_GST_tev_Rac1 GTP (bacterial GST tagged Rac1 protein)", "values": [{"measurement": "Barbed ends % of max. (after subtracting baseline)", "setting": "[1]", "result": 28, "unit": "%"}, {"measurement": "Barbed ends, nM (pyrene-actin polymerization assay)", "setting": "[1]", "result": 1.9, "unit": "nM"}, {"measurement": "Barbed ends % of max. (after subtracting baseline)", "setting": "[2]", "result": 12, "unit": "%"}, {"measurement": "Barbed ends, nM (pyrene-actin polymerization assay)", "setting": "[2]", "result": 1.4, "unit": "nM"}]}]}
